Chains of the proteins cited; added tags and fusions are not shown.
UniProt P29371, whole entry H316F: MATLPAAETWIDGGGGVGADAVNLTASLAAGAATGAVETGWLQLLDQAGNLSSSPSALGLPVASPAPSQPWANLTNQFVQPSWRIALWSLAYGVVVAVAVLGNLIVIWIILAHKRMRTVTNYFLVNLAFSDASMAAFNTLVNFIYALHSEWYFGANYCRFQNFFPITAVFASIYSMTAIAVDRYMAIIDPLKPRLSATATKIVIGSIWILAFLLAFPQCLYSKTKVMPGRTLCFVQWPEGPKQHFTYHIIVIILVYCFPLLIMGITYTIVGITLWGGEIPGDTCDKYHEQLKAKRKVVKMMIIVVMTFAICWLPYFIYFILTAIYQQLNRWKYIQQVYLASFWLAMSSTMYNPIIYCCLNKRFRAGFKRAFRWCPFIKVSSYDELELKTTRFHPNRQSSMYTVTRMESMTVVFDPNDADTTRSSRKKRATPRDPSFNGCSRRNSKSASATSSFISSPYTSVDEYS
UniProt P29371, whole entry: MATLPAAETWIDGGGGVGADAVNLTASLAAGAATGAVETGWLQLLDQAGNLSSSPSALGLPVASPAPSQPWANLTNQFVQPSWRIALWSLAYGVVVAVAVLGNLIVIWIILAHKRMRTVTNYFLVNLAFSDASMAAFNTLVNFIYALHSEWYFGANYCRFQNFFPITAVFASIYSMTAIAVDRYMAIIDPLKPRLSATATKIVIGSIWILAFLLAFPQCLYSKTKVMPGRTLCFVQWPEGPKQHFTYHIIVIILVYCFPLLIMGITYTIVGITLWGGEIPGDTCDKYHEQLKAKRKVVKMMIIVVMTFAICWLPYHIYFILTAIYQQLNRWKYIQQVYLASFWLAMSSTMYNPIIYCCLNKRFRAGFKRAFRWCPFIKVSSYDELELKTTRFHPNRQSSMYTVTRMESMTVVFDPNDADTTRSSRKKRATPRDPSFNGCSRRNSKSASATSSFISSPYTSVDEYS
UniProt P29371, whole entry H316W: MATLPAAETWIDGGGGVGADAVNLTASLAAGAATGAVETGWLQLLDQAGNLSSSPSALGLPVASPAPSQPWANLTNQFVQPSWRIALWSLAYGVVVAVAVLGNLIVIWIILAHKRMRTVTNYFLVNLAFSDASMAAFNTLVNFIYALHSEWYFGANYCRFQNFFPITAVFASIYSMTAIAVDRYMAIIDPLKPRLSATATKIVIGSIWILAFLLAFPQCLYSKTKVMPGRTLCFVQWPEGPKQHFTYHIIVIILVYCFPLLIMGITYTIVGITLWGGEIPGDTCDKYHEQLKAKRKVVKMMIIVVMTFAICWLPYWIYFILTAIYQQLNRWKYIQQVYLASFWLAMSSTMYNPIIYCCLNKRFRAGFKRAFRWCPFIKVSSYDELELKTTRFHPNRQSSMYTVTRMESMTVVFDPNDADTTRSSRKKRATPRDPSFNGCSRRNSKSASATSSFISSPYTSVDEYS
UniProt P29371, whole entry Y247F: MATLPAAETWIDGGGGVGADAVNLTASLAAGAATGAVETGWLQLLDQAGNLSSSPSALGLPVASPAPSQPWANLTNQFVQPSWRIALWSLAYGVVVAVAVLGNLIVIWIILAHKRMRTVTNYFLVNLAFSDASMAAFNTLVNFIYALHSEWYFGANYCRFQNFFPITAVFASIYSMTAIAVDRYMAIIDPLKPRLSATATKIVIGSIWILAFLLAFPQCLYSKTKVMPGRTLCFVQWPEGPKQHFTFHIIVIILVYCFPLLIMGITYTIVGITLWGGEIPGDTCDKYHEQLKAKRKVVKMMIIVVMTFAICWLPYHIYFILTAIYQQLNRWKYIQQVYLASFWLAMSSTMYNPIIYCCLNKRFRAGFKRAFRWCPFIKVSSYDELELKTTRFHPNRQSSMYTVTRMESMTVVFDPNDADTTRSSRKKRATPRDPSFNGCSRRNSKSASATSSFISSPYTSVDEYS
UniProt P29371, whole entry Y247W: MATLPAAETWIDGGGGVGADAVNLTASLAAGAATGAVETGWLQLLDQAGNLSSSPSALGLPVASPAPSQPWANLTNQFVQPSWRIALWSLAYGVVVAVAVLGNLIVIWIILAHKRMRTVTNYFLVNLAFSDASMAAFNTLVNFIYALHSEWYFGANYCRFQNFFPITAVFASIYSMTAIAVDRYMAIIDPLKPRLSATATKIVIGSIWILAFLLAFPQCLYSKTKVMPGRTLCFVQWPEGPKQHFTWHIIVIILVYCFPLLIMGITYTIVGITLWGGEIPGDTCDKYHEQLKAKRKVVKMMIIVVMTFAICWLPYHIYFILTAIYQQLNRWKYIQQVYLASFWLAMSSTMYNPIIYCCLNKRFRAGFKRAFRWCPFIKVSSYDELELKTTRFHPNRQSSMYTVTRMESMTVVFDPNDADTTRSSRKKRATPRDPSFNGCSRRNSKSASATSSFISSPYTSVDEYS
UniProt P29371, whole entry Y315F: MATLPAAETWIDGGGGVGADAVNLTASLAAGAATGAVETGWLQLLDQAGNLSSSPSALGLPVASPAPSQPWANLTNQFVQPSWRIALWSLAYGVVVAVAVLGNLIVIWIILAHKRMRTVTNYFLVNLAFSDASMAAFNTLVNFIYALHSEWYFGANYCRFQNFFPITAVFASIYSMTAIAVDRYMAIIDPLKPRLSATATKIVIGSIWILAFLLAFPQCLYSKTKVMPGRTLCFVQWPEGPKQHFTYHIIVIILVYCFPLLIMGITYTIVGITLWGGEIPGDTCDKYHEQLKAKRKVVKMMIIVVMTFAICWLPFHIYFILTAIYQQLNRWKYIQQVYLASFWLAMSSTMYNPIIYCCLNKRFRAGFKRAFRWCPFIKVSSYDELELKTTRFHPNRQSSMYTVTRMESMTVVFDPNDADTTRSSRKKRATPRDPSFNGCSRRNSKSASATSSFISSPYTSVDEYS

In ChEMBL document CHEMBL2203099, “Identification of a crucial amino acid in the helix position 6.51 of human tachykinin neurokinin 1 and 3 receptors contributing to the insurmountable mode of antagonism by dual NK₁/NK₃ antagonists” (J Med Chem, 2012):

Key:
Type in all cases: cell-based
[1] = target: T1, Neuromedin-K receptor (Homo sapiens, UniProt P29371, H316F); assay: Binding affinity to human NK3 H316F mutant expressed in HEK293 cells assessed as [3H]IP accumulation after 45 mins
[2] = target: Neuromedin-K receptor (Homo sapiens, UniProt P29371); assay: Binding affinity to wild type human NK3 receptor expressed in HEK293 cells assessed as [3H]IP accumulation after 45 mins
[3] = target: T2, Neuromedin-K receptor (Homo sapiens, UniProt P29371, H316W); assay: Binding affinity to human NK3 H316W mutant expressed in HEK293 cells assessed as [3H]IP accumulation after 45 mins
[4] = target: T3, Neuromedin-K receptor (Homo sapiens, UniProt P29371, Y247F); assay: Binding affinity to human NK3 Y247F mutant expressed in HEK293 cells assessed as [3H]IP accumulation after 45 mins
[5] = target: T4, Neuromedin-K receptor (Homo sapiens, UniProt P29371, Y247W); assay: Binding affinity to human NK3 Y247W mutant expressed in HEK293 cells assessed as [3H]IP accumulation after 45 mins
[6] = target: T5, Neuromedin-K receptor (Homo sapiens, UniProt P29371, Y315F); assay: Displacement of radioligand [3H]osanetant at human NK3 Y315F6.51 mutant expressed in HEK293 cells
[7] = target: T4, Neuromedin-K receptor; assay: Displacement of radioligand [3H]osanetant at human NK3 Y247W mutant expressed in HEK293 cells
[8] = target: T2, Neuromedin-K receptor; assay: Competitive inhibition at human NK3 H316W6.52 mutant expressed in HEK293 cells assessed as decrease in [MePhe7]NKB-induced [3H]IP accumulation after 20 mins; conditions: read-out: pA2 (converted)
[9] = target: T5, Neuromedin-K receptor; assay: Competitive inhibition at human NK3 Y315F6.51 mutant expressed in HEK293 cells assessed as decrease in [MePhe7]NKB-induced [3H]IP accumulation after 20 mins; conditions: read-out: pA2 (converted)
Summary of the method: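 HEK293 cells transiently expressing human NK3 WT or mutant, labeled with myo-[³H]inositol in LiCl buffer. Antagonist preincubated 20 min at 37 °C, then [MePhe⁷]NKB (0.01 nM–1 μM) added for 45 min at 37 °C. [³H]IP read by SPA beads. Schild analysis of EC50 shift and Emax depression across increasing antagonist concentrations gives pA2, slope and mode of antagonism.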

[10] = target: T1, Neuromedin-K receptor; assay: Displacement of radioligand [3H]osanetant at human NK3 H316F mutant expressed in HEK293 cells
[11] = target: T2, Neuromedin-K receptor; assay: Displacement of radioligand [3H]osanetant at human NK3 H316W mutant expressed in HEK293 cells
[12] = target: T3, Neuromedin-K receptor; assay: Competitive inhibition at human NK3 Y247F5.38 mutant expressed in HEK293 cells assessed as decrease in [MePhe7]NKB-induced [3H]IP accumulation after 20 mins; conditions: read-out: pA2 (converted)

Row | Kd [1] [nM] | Kd [2] [nM] | Kd [3] [nM] | Kd [4] [nM] | Kd [5] [nM] | Ki [6] [nM] | Ki [7] [nM] | Kb [8] [nM] | Kb [9] [nM] | Ki [10] [nM] | Ki [11] [nM] | Kb [12] [nM] | SMILES
1 | 0.08 | 0.2 | 2.2 | 0.7 | 1 |  |  |  |  |  |  |  | [3H]c1cccc(C2(N(C)C(C)=O)CCN(CCC[C@]3(c4ccc(Cl)c(Cl)c4)CCCN(C(=O)c4ccccc4)C3)CC2)c1
2 |  |  |  |  |  | 10.8 | 2.1 | 17 | 29.5 | 0.4 | 4.8 | 5.89 | CC(=O)N(C)C1(c2ccccc2)CCN(CCC[C@]2(c3ccc(Cl)c(Cl)c3)CCCN(C(=O)c3ccccc3)C2)CC1 [OSANETANT]
